AlphaSeq binding of Ab-14 heavy chain variants to a spike HR2 peptide

Reference: Engelhart et al. 2022, doi:10.1038/s41597-022-01779-4. File: FLAb, binding data.

Target: peptide PDVDLGDISGINAS, taken from heptad repeat 2 (HR2) of SARS-CoV-2 spike.

The variants keep the light chain, the linker and the frameworks of Ab-14 (scFv order VH, the linker GGGGSGGGGSGGGGS, VL).
VH: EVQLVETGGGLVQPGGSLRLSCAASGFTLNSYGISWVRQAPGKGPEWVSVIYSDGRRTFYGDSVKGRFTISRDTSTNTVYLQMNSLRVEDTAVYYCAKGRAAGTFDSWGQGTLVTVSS
VL: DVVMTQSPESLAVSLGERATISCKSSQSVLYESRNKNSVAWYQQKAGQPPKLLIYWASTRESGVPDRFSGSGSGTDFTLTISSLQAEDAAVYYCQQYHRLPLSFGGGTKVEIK

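Phage display of a naive human antibody library on the peptide gave the parent. In library AAYL49, one, two or three CDR residues were substituted; doubles and triples were drawn at random. AlphaSeq pools MATa yeast showing the antibodies with MATalpha yeast showing the peptide. Pairs that bind mate more often; barcode pairs of the diploids are counted by sequencing. Scores were corrected for input abundance and mapped to Kd with protein pairs of known affinity run in the same pool. Each pool was mated in three replicate cultures.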

Variants are written as CDR1, CDR2 and CDR3 of the heavy chain (limits as in the source). Parent: GFTLNSYGIS, VIYSDGRRTFYGDSVK, GRAAGTFDS. Values are log10 of the apparent Kd in nM; lower means stronger binding. A pair that was not seen in that replicate is written "nd"; this usually means weak binding, but a binder can also be missed.

| # | CDR-H1 | CDR-H2 | CDR-H3 | log10 Kd (nM) by replicate | empty controls |
|---|---|---|---|---|---|
| 1 | GFKLNSNGIS | VIYSGGRRTFYGDSVK | GRAAGTFDS | nd / nd / nd | 1 of 9 (4.02) |
| 2 | GFTLNSYGIS | VIYSQGRSTFYGDSVK | GRAAGTFDS | nd / 3.52 / nd | 2 of 9 (4.17) |
| 3 | GFTLNSYGIS | TIYMDGRRTFYGDSFK | GRAAGTFDS | nd / nd / nd | 0 of 9 |
| 4 | GFTLNSYGIS | VIYSDGRRQFYMDSVK | GRAAGTFDR | 1.82 / 1.99 / 1.90 | 0 of 9 |
| 5 | GHTFNSYGIS | VIYSDGRRTFYGDSVV | GRAAGTFDS | nd / nd / 3.71 | 1 of 9 (3.49) |
| 6 | GFTLPSYGIS | VIYSDGRCTFYGDSVK | GRDAGTFDS | 3.56 / nd / nd | 4 of 9 (5.40) |
| 7 | GFTLNSYGIV | CIYSDGRRTFYGDSVK | GRAAGTFDS | nd / nd / nd | 1 of 9 (4.49) |
| 8 | GFTMNSYGIS | VIYSDGRRYFYGDSVK | GRAAGTGDS | nd / nd / 3.80 | 1 of 9 (3.07) |
| 9 | GFTLNSYLIE | VIYSDGRRTFYGDSVK | GAAAGTFDS | 4.80 / 3.80 / 4.30 | 7 of 9 (4.43) |
| 10 | GFHLNSYGIS | VIYSDGRRTFYGDSVH | GRAAGTFDE | nd / nd / nd | 0 of 9 |
| 11 | GFTLNSYSIS | VIYSDKRRTFYGDCVK | GRAAGTFDS | nd / nd / nd | 1 of 9 (3.12) |
| 12 | GFTLNSYGIS | VGYSDGRRTFYGDSVK | IRAMGTFDS | nd / nd / nd | 0 of 9 |
| 13 | GFTLNSDGIS | VIYSDGYRTLYGDSVK | GRAAGTFDS | nd / nd / nd | 1 of 9 (3.83) |
| 14 | GFTLNSYGWS | VIYSDGERTFYGDSVK | SRAAGTFDS | nd / nd / nd | 0 of 9 |
| 15 | GFTLNSYGMS | VIYSDGRRTFWGDSVK | GNAAGTFDS | nd / nd / nd | 0 of 9 |
| 16 | GFTLNSYGIS | LIYSDTRRTFPGDSVK | GRAAGTFDS | 6.22 / nd / nd | 5 of 9 (4.07) |
| 17 | CFTLCSYGIS | VIYSDGRRTFYGDSVC | GRAAGTFDS | nd / nd / nd | 0 of 9 |
| 18 | GFTLNSYGIS | VIYSDGRRTFYGDSVK | GRAAGTFPS | 1.14 / 1.27 / 1.45 | 3 of 9 (4.00) |
| 19 | GFTLNSYGIS | VIYSDGRRTGYGDSHK | KRAAGTFDS | nd / nd / nd | 0 of 9 |
| 20 | GFTLNSYLIS | VIYSDGRRPFYGDSVK | GRAAGTEDS | nd / 3.69 / nd | 4 of 9 (3.90) |
| 21 | GFTEPSYGIS | VIYSDGRATFYGDSVK | GRAAGTFDS | nd / nd / nd | 2 of 9 (2.90) |
| 22 | GFTLNSEGIS | VIYSDGRRVFYGDSVK | GRAAGTFFS | nd / nd / nd | 2 of 9 (3.94) |
| 23 | TFTLNSYGIS | AIYSDGRRTFYGDSVK | GRAAGTMDS | 4.89 / nd / nd | 4 of 9 (4.29) |
| 24 | GFTLMSYGIS | VIMSDGRRTFYGDSVY | GRAAGTFDS | nd / nd / nd | 0 of 9 |
| 25 | GFVLNSYGIS | VIYRDGRRTFYGDSVK | GRAAGFFDS | 3.76 / nd / nd | 2 of 9 (3.94) |
| 26 | GFTLNSYGIS | VIYSDGRMTFYGDSVK | GKAAETFDS | nd / 4.95 / nd | 2 of 9 (3.89) |
| 27 | GFTLNSYEMS | VIYSDGRRTFYMDSVK | GRAAGTFDS | nd / nd / nd | 0 of 9 |
| 28 | GFTLNSYGPS | YIYSDGRRTFYGDSVK | GRAAGRFDS | nd / nd / nd | 0 of 9 |
| 29 | GFTLNDYGIV | VIYSDGRRTFYGDSVK | GRAAGEFDS | nd / 3.66 / nd | 2 of 9 (4.41) |
| 30 | GFTLNSYGIS | VIYSDHRRTFYGDVVK | GRAAGTFWS | nd / nd / 5.29 | 3 of 9 (3.58) |
| 31 | GFTLNSYGIS | VGYSDGCRTFYGDSVK | GRAAGTFDS | nd / 3.48 / 3.23 | 1 of 9 (3.70) |
| 32 | GFTLNSYGIS | VIYSDGRTEFYEDSVK | GRAAGTFDS | nd / nd / nd | 0 of 9 |
| 33 | GFTLNSYCIS | VIYSDGRRTFYGDSVK | WRAAGTFDS | nd / nd / nd | 4 of 9 (3.72) |
| 34 | GFTTNSYGIS | VIYSDGRTTFYGDSVK | GRAAGTFDS | nd / nd / 3.77 | 1 of 9 (3.52) |
| 35 | GFKLNSYFIS | VIYSDGRRTFYGDYVK | GRAAGTFDS | nd / 3.44 / nd | 0 of 9 |
| 36 | GFTLNSYKIS | VIYSDGRRTFPGDSVP | GRAAGTFDS | nd / nd / nd | 0 of 9 |
| 37 | GFTLNSYGWS | VIYSDGRRTFYGDSWK | GVAAGTFDS | nd / 2.76 / nd | 0 of 9 |
| 38 | GQTLNSKGIS | VIYSDGRRTFYGDSVK | GRAANTFDS | nd / nd / nd | 0 of 9 |
| 39 | GFTLNSYGIC | VIYSDGRRDFYGDIVK | GRAAGTFDS | nd / nd / nd | 0 of 9 |
| 40 | GFTLNSYGIS | VIYSVGRRTFYGDSVK | GRAAGTFSS | 3.80 / nd / nd | 4 of 9 (4.19) |
| 41 | GQTMNSYGIS | VILSDGRRTFYGDSVK | GRAAGTFDS | nd / nd / nd | 0 of 9 |
| 42 | GFTLNSYGIS | VIYSDGRRLFYGDSVK | GRAAGTFDS | 3.00 / 2.28 / 2.22 | 0 of 9 |
| 43 | GWTLNSYGIS | VIYSDGRRTFYGDSVP | GRAACTFDS | 4.11 / nd / 4.60 | 3 of 9 (4.28) |
| 44 | GATLNSYGIS | CGYSDGRRTFYGDSVK | GRAAGTFDS | nd / nd / nd | 1 of 9 (3.92) |

Excerpt, the first 6 entries:

| CDR-H1 | CDR-H2 | CDR-H3 | log10 Kd (nM) by replicate | empty controls |
|---|---|---|---|---|
| GFKLNSNGIS | VIYSGGRRTFYGDSVK | GRAAGTFDS | nd / nd / nd | 1 of 9 (4.02) |
| GFTLNSYGIS | VIYSQGRSTFYGDSVK | GRAAGTFDS | nd / 3.52 / nd | 2 of 9 (4.17) |
| GFTLNSYGIS | TIYMDGRRTFYGDSFK | GRAAGTFDS | nd / nd / nd | 0 of 9 |
| GFTLNSYGIS | VIYSDGRRQFYMDSVK | GRAAGTFDR | 1.82 / 1.99 / 1.90 | 0 of 9 |
| GHTFNSYGIS | VIYSDGRRTFYGDSVV | GRAAGTFDS | nd / nd / 3.71 | 1 of 9 (3.49) |
| GFTLPSYGIS | VIYSDGRCTFYGDSVK | GRDAGTFDS | 3.56 / nd / nd | 4 of 9 (5.40) |

In this assay the parent's reference entry averaged 0.65; its copy inside this library read 4.11 (one replicate of three). Empty control strains, which show no peptide, gave a signal in 15% of pairings with library AAYL49; the median was 4.06 and 95% of these signals were weaker than 2.83. No background was subtracted. The control count says in how many pairings with the empty strains this scFv gave a signal, with their mean in brackets.